# Measured values reported in patent US20050202527A1.
# How the values were obtained:
# [1] = tested on: PC variant Fpa-LID (activation peptide replaced with DFLAEGGGVR, native P1'-P3' LID)
# [2] = tested on: PC variant ΔDTEDQED (first 7 residues of the activation peptide deleted)
# [3] = tested on: FX variant FpA-IVG (activation peptide replaced with DFLAEGGGVR, native P1'-P3' IVG)
# [4] = tested on: normal human protein C (recombinant zymogen)
# [5] = target: PC variant Fpa-LFG (human) (UniProt P04070); assay: cell-based or functional assay
# [6] = target: PC variant Fpa-LID (activation peptide replaced with …, native P1'-P3' LID) (human) (UniProt P04070); assay: cell-based or functional assay
# [7] = target: PC variant Fpa-AIG (human) (UniProt P04070); assay: cell-based or functional assay
# [8] = target: PC variant Fpa-SIG (human) (UniProt P04070); assay: cell-based or functional assay
# [9] = target: FX variant FpA-AFG (human) (UniProt P00742); assay: cell-based or functional assay
substance,measurement,setting,value
thrombin,activation rate constant,[1],an activation rate constant of 2×10^4M^-1s^-1
same,kon (specificity constant) of activation by thrombin,[1],11000 M⁻¹ s⁻¹
same,kon (specificity constant) of activation by thrombin,FX variant FpA-AFG,240000 M⁻¹ s⁻¹
same,activation rate against normal PC,[2],2 fold
same,kon (specificity constant) of activation by thrombin,[2],600 M⁻¹ s⁻¹
same,gain in activation rate against the mutant carrying FpA and D18G (Fpa-LIG),PC variant Fpa-AIG,approximately 2-fold
same,kon (specificity constant) of activation by thrombin,PC variant Fpa-AIG,30000 M⁻¹ s⁻¹
same,fold increase of the activation rate against FpA-IVG,FX variant FpA-AVG,this rate increases 5.5-fold
same,kon (specificity constant) of activation by thrombin,FX variant FpA-AVG,2200 M⁻¹ s⁻¹
same,kon (specificity constant) of activation by thrombin,[3],400 M⁻¹ s⁻¹
same,gain in activation rate against the PC derivative carrying only FpA (Fpa-LID),PC variant Fpa-SIG,more than 10-fold
same,kon (specificity constant) of activation by thrombin,PC variant Fpa-SIG,160000 M⁻¹ s⁻¹
same,kon (specificity constant) of activation by thrombin,[4],300 M⁻¹ s⁻¹
same,fold increase of the activation rate against FpA-IVG,FX variant FpA-IFG,increases this rate 7.5-fold
same,kon (specificity constant) of activation by thrombin,FX variant FpA-IFG,3000 M⁻¹ s⁻¹
same,kon (specificity constant) of activation by thrombin,PC variant Fpa-LFG,29000 M⁻¹ s⁻¹
same,gain in activation rate from the D18G mutation (against Fpa-LID),PC variant Fpa-LIG,only 1.6-fold
same,kon (specificity constant) of activation by thrombin,PC variant Fpa-LIG,16000 M⁻¹ s⁻¹
thrombin in the presence of thrombomodulin,kon (specificity constant) of activation by thrombin in the presence of thrombomodulin,[4],500000 M⁻¹ s⁻¹
thrombin (from UniProt P00734 328-622) (enzyme),fold increase of kon against normal PC,[5],96 fold
same,fold increase of kon against normal PC,[6],40 fold
same,fold increase of kon against normal PC,[7],100 fold
same,fold increase of kon against normal PC,[8],500 fold
same,fold increase of kon against FpA-IVG,[9],625 fold
